This is a sample that favours compounds with a hit; in the whole collection about 4.2% have one here.
MC4R antagonist = MC4R antagonists of cAMP signaling, primary screen, cell-based, TR-FRET, antagonist arm of biased-ligand search | inhibition, % at 6.5 µM | Melanocortin receptor 4 (Homo sapiens), P32245 | MC4R-expressing cells, MTII-stimulated cAMP, LANCE TR-FRET | actives 0.48% (n = 360,000) | AID 540295, 2011;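 active = inhibition above its plate's cutoff, the mean of tested wells on that plate plus 3 SD, cut at about 29% in these data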;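 also: 0% = Melanotan II alone and 100% = Melanotan II plus saturating MCL0020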
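System: U2OS cells stably expressing human melanocortin 4 receptor (MC4R). Reagent: Melanotan II challenge after compound preincubation. Doses: 6.5 µM. Times: 30-min compound, 1-h challenge, 1-h detection, room temperature. Measured by: TR-FRET with Eu-cAMP and labeled anti-cAMP, 671 nm. Replicates: singlicate.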
HDAC3 inh = HDAC3 deacetylase inhibitors, primary screen, biochemical, fluorescence, cell-free homogeneous. actives 0.15% (n = 320,000). recombinant HDAC3, fluorogenic peptide/trypsin coupled. AID 2718, 2010. inhibition, % at 8.3 µM. Histone deacetylase 3 (Homo sapiens), O15379; in the data active = inhibition above about 26%, passing the limit was not always enough; inconclusive = no clear call, values can overlap the other calls
NALP1 inh = NALP1 inflammasome inhibitors in reconstituted yeast, colorimetric, S. cerevisiae, triplicate retest; S. cerevisiae NALP1/ASC/caspase-1 growth, X-gal OD620, 72 h; actives 0.61% (n = 280,000); inhibition, % at 10 µM; AID 2071, 2009; in the data active = inhibition mostly above about 24%, no sharp cut-off; inactive = mostly below about 32%
MC4R ag barr = MC4R agonists recruiting beta-arrestin, primary screen, cell-based, luminescence, agonist arm of biased-ligand search | U2OS MC4R beta-arrestin complementation; percent of melanotan II response, DMSO zero | activation, % at 8.9 µM | actives 0.98% (n = 360,000) | AID 540308, 2011 | Melanocortin receptor 4 (Homo sapiens), P32245;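 active = activation above a per-plate cutoff, the mean activation of sample wells on that plate plus 3 SD, cut at about 8% in these data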
Yeast UUG start = modulators of start codon recognition fidelity in yeast; S. cerevisiae UUG-firefly luciferase reporter, luminescence/redox ratio; activity score, % at 18.7 µM; hit rate 0.13% among 350,000; AID 602363;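 active = replicate mean at a twofold rise or more, about +100% in these data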;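 note: firefly luciferase made from a UUG start codon reports start codon fidelity; reporter light over untreated wells divided by growth signal over untreated wells; some hits fall short of that in this replicate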
ALR inh = human ALR oxidase inhibition via reduced H2O2; P55789; purified ALR, DTT oxidation, H2O2 HRP-luminol luminescence; inhibition, % (concentration not given with the values); 290,000 compounds, 3.8% hits;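 active = mean and each replicate at 75% or more; inconclusive = only one of the two met; inactive = neither met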;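 also: stock transfer was 7.5 nL into about 7.5 µL; 0% = neutral wells and 100% = wells with inactivated enzyme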
* marks the source's active call; other numbers are inactive results; ? = inconclusive; . = no result given.

Sequences of proteins named here, by UniProt entry; tags and fusion partners are left off.
Melanocortin receptor 4 (Homo sapiens), P32245, UniProt P32245, whole entry, looked up: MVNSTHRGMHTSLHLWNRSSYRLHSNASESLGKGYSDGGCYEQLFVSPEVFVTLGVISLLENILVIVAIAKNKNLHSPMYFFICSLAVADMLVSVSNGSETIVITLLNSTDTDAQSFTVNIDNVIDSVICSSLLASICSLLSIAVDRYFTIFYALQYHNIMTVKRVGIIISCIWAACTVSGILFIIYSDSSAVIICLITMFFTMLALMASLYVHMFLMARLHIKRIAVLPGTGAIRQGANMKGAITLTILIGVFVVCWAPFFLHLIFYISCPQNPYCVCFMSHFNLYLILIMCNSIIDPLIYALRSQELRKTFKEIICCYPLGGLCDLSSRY

canonical_smiles,NALP1 inh,ALR inh,HDAC3 inh,Yeast UUG start,MC4R antagonist,MC4R ag barr
O=C(CC(Nc1ccccc1Cl)C(=O)O)c1ccccc1 (stereo not given),-2.7,97.5*,-8.2,.,4.6,-2.1
CN(C)C(=O)[C@H]1[C@H](CO)[C@H]2Cn3c(ccc(C4=CCCC4)c3=O)[C@@H]1N2CC1CC1,.,.,.,-11.7,.,.
Cc1noc(C)c1S(=O)(=O)Nc1ccc2c(c1)C(=O)N([C@@H](C)CO)C[C@@H](C)[C@@H](CN(C)S(C)(=O)=O)O2,.,.,.,-7.5,.,.
C=CC[C@H](CC(=O)N(CCO)Cc1ccccc1)C(=O)N[C@H](COC(=O)[C@@H](CC=C)CC(=O)OC(C)(C)C)Cc1ccccc1,.,0.5,29.6*,-9.2,15.8,2.6
C=CC[C@@H](CC(=O)N[C@H](CO)Cc1ccccc1)C(=O)N[C@H](COC(=O)[C@@H](CC=C)CC(=O)OC(C)(C)C)Cc1ccccc1,.,1.2,?,-12.7,11.8,9.8*
C=CC[C@H](CC(=O)N(CCO)Cc1ccccc1)C(=O)N[C@H](C)COC(=O)[C@@H](CC=C)CC(=O)OC(C)(C)C,.,-1.9,1.0,27.9,0.9,0.6
C=CC[C@@H](CC(=O)N(CCO)Cc1ccccc1)C(=O)N[C@H](COC(=O)[C@@H](CC=C)CC(=O)OC(C)(C)C)Cc1ccccc1,.,.,.,-14.3,7.8,9.3*
Cn1cnc(S(=O)(=O)N2C[C@H](O)COC[C@H]3O[C@@H](CC(=O)NCc4cc(F)cc(F)c4)CC[C@@H]32)c1,.,.,.,6.6,.,.
CC(C)C(=O)Nc1ccc2c(c1)C(=O)N(C)[C@@H]1CC[C@H](CC(=O)NCc3ccccc3F)O[C@@H]1CO2,.,.,.,12.4,.,.
CC1CCc2c(nc3ncnn3c2N2CCN(c3ccccc3)CC2)C1 (stereo not given),12.6,98.7*,0.2,-12.7,8.9,-2.0
CC(C)C#Cc1ccc2c(c1)O[C@H](CN(C)C(=O)NC(C)C)[C@@H](C)CN([C@@H](C)CO)S2(=O)=O,.,.,.,25.9,.,.
CC(=O)NC(c1ccc(Cl)cc1)c1c(O)ccc2ccc(O)cc12 (stereo not given),9.3,95.6*,?,.,7.6,-2.3
O=C(NC(c1ccc(Cl)cc1)c1c(O)ccc2ccccc12)c1ccccc1 (stereo not given),19.5,-1.3,-6.1,-15.3,10.0,-3.0
O=c1[nH]cnc2ncc(-c3ccc(O)cc3)nc12,.,99.6*,5.6,-0.7,4.3,0.7
COC(=O)C1=C(C)Nc2ccc(C)cc2S1,5.2,98.0*,-1.8,-11.2,13.6,-0.3
CN1c2cccc3cccc(c23)N(C)C1(C)C,13.5,87.4*,-3.4,-10.5,-7.8,-3.4
CC(=O)OCC1(C)CN(c2ccccc2)NC1=O (stereo not given),16.8,99.3*,-0.5,.,1.0,-0.7
O=c1cc(-c2ccc(O)cc2)oc2c([C@@H]3O[C@H](CO)[C@@H](O)[C@H](O)[C@H]3O)c(O)c([C@@H]3O[C@H](CO)[C@@H](O)[C@H](O)[C@H]3O)c(O)c12,32.0,.,13.1,-9.7,-3.5,-0.3
O=c1cc(-c2ccc(O)c(O)c2)oc2cc(O)c([C@@H]3O[C@H](CO)[C@@H](O)[C@H](O)[C@H]3O)c(O)c12,.,98.6*,7.2,-13.2,-4.8,-1.9
O=c1c2cc(O)c(O)cc2oc2cc(O)c(C3OC(CO)C(O)C(O)C3O)c(O)c12 (stereo not given),.,99.3*,10.8,-0.4,2.8,-0.7
O=C(CN1C(=O)S/C(=C\C=C\c2ccccc2)C1=O)Nc1ccccc1C(=O)O,7.1,96.9*,?,.,1.8,-0.3
O=C(CCCN1C(=O)/C(=C\c2cccs2)SC1=S)Nc1ccccc1O,.,.,.,-14.1,-2.7,8.9*
O=C(CCN1C(=O)/C(=C/c2ccccc2Cl)SC1=S)Nc1ccccc1C(=O)O,-3.9,98.3*,-3.2,-3.3,10.8,1.6
CN1CCN(NC(=O)CN2C(=O)/C(=C/c3ccccc3Cl)SC2=S)CC1,12.6,98.8*,8.4,-18.7,-4.3,1.0
COc1ccc(CCNC(=O)CSc2ccc(NC(C)=O)cc2)cc1OC,8.7,98.5*,-6.9,4.5,2.7,-1.1
O=C(CSc1ccc2ccccc2c1)NCCc1ccc(O)c(O)c1,-16.5,99.0*,-1.6,-5.8,12.7,-2.6
COc1ccc(CCNC(=O)CSc2nnc(-c3ccccc3)c3ccccc23)cc1OC,19.1,96.0*,2.2,-24.0,6.2,0.2
O=C(CSc1ccccc1)NCCc1ccccc1,10.4,-13.6,9.2,3.2,4.9,-0.2
COc1ccc(CCNC(=O)CSc2ccc3ccccc3c2)cc1OC,19.5,99.0*,0.2,-7.6,11.4,0.7
COc1ccc(CCNC(=O)CSc2nnc(-c3ccccc3)o2)cc1OC,3.0,-0.4,3.7,-25.2,-5.9,2.0
CC(=O)N(C)C[C@H]1Oc2ncc(C#Cc3ccccc3)cc2C(=O)N([C@H](C)CO)C[C@H]1C,.,.,.,1.1,.,.
CN(C)CCCNC(=O)[C@H]1[C@H](CO)[C@H]2Cn3c(ccc(C4=CCCCC4)c3=O)[C@@H]1N2Cc1cocn1,.,.,.,-1.7,.,.
CC(=O)c1ccc(NC(=O)CCCCCn2nnc3ccccc3c2=O)cc1,-1.9,-12.9,-9.3,-5.3,6.5,-2.4
O=C(CSCC(=O)OCn1nnc2ccccc2c1=O)Nc1ccc(Cl)cc1,-1.4,97.8*,5.4,0.7,15.8,-2.1
CN(C)c1ccc(NC(=O)CCCCCn2nnc3ccccc3c2=O)cc1,-32.1,98.5*,1.4,-16.0,3.3,-0.7
O=C1c2ccccc2CSc2c(O)cccc21,.,79.5*,?,-2.1,1.6,-1.0
CCOCCCn1c(SCC(=O)NCc2ccco2)nc2c(sc3ccccc32)c1=O,14.6,-0.9,2.5,-10.2,19.9,9.4*
CCN(CC)CCn1c(SCC(=O)NCc2ccccc2)nc2c(sc3ccccc32)c1=O,-8.2,96.5*,-2.9,0.5,-5.4,-3.1
COc1ccc(NC(=O)CSc2nc3c(sc4ccccc43)c(=O)n2CCCN2CCCC2)cc1,6.6,99.0*,8.5,-8.5,3.6,-0.4
CCCCn1c(SCC(=O)NCc2ccco2)nc2c(sc3ccccc32)c1=O,22.4,-14.1,-3.3,-1.8,-1.9,3.6
COc1cccc(-c2ccc3n(c2=O)C[C@H]2[C@H](CO)[C@@H](C(=O)N(C)C)N(C(=O)C4CCC4)[C@@H]32)c1,.,.,.,11.4,.,.
O=C(C[C@H]1C=C[C@@H](NC(=O)Nc2ccc(F)cc2)[C@@H](CO)O1)NCCN1CCCC1,.,.,.,-10.3,.,.

Four records drawn at random from those above, as already listed:
canonical_smiles,NALP1 inh,ALR inh,HDAC3 inh,Yeast UUG start,MC4R antagonist,MC4R ag barr
CCN(CC)CCn1c(SCC(=O)NCc2ccccc2)nc2c(sc3ccccc32)c1=O,-8.2,96.5*,-2.9,0.5,-5.4,-3.1
O=C(NC(c1ccc(Cl)cc1)c1c(O)ccc2ccccc12)c1ccccc1 (stereo not given),19.5,-1.3,-6.1,-15.3,10.0,-3.0
O=C(CCCN1C(=O)/C(=C\c2cccs2)SC1=S)Nc1ccccc1O,.,.,.,-14.1,-2.7,8.9*
COc1ccc(NC(=O)CSc2nc3c(sc4ccccc43)c(=O)n2CCCN2CCCC2)cc1,6.6,99.0*,8.5,-8.5,3.6,-0.4

Screening results deposited in PubChem by several laboratories.
